Target: D(2) dopamine receptor (Rattus norvegicus, UniProt P61169)

Protein sequences, listed by entry. Tags and fused reporters are not part of them.
UniProt P61169, whole entry: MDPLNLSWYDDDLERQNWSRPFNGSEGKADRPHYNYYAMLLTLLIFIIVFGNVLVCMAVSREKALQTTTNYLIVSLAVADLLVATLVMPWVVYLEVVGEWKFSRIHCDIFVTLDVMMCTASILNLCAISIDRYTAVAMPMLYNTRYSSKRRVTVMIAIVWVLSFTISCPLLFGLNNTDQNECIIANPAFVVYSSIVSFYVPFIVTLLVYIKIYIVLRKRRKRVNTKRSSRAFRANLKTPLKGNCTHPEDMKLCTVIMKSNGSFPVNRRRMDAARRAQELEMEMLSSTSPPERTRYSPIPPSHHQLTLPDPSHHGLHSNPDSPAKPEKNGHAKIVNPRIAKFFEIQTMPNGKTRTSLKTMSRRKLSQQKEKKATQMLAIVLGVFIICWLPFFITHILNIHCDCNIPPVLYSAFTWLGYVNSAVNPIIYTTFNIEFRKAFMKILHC

## CN1CCc2cccc3c2[C@H]1Cc1ccc(O)c(O)c1-3 [APOMORPHINE]
  Ki: 0.0173 µM
